Data from patent US8318724B2, “Small molecule inhibitors of MRP1 and other multidrug transporters” (The Cleveland Clinic Foundation, priority 2004, dated 2012).

Chains of the proteins cited; added tags and fusions are not shown. Lines headed by an entry give the natural chain unless they say otherwise; changes in a name come on top.
UniProt P33527: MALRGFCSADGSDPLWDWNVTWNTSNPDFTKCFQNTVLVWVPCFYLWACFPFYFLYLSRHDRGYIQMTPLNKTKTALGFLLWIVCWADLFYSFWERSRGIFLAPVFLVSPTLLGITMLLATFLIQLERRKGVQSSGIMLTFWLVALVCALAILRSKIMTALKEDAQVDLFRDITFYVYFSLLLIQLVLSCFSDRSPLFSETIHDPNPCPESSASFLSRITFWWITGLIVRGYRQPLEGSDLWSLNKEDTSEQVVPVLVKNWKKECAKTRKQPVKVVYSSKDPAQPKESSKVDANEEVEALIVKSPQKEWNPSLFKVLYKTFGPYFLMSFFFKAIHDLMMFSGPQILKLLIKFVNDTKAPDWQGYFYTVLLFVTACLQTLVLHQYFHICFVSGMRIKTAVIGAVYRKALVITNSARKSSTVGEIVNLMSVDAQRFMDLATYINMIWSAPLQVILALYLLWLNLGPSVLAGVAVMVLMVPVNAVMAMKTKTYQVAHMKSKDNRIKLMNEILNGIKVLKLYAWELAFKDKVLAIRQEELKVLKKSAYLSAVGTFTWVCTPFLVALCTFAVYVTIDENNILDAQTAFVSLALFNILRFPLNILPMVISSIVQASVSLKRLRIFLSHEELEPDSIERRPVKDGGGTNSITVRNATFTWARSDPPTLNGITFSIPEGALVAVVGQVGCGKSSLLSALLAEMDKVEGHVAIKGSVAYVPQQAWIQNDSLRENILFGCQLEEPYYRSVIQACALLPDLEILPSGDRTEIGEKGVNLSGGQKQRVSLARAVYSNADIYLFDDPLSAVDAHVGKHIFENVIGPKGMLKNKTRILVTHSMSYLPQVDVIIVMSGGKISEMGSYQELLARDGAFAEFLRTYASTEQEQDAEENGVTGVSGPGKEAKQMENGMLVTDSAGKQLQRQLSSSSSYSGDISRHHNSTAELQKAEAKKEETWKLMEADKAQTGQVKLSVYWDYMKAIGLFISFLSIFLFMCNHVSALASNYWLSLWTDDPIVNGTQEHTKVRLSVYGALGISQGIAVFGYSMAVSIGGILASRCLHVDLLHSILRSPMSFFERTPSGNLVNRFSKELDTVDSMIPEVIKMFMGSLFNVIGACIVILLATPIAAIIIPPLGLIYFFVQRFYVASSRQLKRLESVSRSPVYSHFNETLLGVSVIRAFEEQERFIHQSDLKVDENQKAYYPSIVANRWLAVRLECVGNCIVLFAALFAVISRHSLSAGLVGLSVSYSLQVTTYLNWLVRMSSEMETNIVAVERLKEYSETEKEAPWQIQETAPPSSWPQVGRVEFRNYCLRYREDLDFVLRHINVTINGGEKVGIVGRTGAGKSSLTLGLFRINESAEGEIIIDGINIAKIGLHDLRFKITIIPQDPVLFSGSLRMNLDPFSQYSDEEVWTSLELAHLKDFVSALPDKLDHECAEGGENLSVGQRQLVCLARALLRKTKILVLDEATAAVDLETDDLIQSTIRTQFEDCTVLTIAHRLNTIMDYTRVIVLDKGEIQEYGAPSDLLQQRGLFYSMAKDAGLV

How the values were obtained:
[1] = target: T1, MRP1 (Homo sapiens, UniProt P33527); experiment: Dose dependence of drug sensitization effect, 4H10 vs MK571 (FIG. 14); format: cell-based; conditions: by effective concentration
T1 construct: MCF7/VP breast cancer cells (24), which have amplified and overexpressed MRP1, but negligible Pgp expression; endogenous in cells; host or cells: MCF7/VP (MCF7/VP clone 14) breast cancer cells
From the text: FIG. 14 contains plots of relative cell viability (%) vs. inhibitor concentration (μM) comparing a present inhibitor compound 4H10 to a prior MRP1 inhibitor MK571;
FIG. 14 summarizes a determination of dose dependence of drug, sensitization effect of compound 4H10 compared to the conventional MRP1 inhibitor MK571.

[2] = system: NB; experiment: In vivo efficacy in mouse model of NB in combination with chemotherapeutic agents (FIG. 20); conditions: n=10, MRP1-transported agent
From the text: FIG. 20 contains plots showing in vivo efficacy of compound 4H10 in increasing the therapeutic effect of two known MRP1 substrate drugs, but not for a nonsubstrate drug.
The test was a clinically relevant mouse model of NB that closely reflects the human disease (n=10, unless otherwise noted).

Q: Which results are given for O=C(NCCCN1CCOCC1)c1cnn2c(-c3ccccc3)cc(-c3ccccc3)nc12 [Compound 4H10]?
A: potency relative to MK571 [1]: about 100 times; effect on therapeutic effects of VP-16 [2]: significantly increases; effect on therapeutic effects of vincristine [2]: significantly increases
